The text below walks through data of patent publication US20050031607A1.

For series [1], the target named is PAI-1 (UniProt P05121). The series is described as follows: equimolar enzyme and PAI-1 (2.0-8.0 nmol/L), 25° C., residual S2444 hydrolysis, plot of 1/[E] vs. time.
The target of series [2] is Glu-plasminogen (UniProt P00747).

“UK (urokinase, two-chain form prepared by plasmin activation of pro-UK) (from UniProt P00749 21-178; P00749 179-431) (enzyme; other documents disagree on this pair)”: in series [1], the second-order rate constant of inhibition (printed as Ki) was 1.7e+07 M⁻¹ s⁻¹.
In series [2], “Ala^158-proUK (plasmin-resistant pro-UK, Lys^158→Ala)” returned a Reaction Rate of Glu-plasminogen activation, Buffer Control (ΔA405 × 10^6/min^2) of 4.4; a Reaction Rate of Glu-plasminogen activation, with D-dimer (1 µmol/L) (ΔA405 × 10^6/min^2) of 4.3; a Reaction Rate of Glu-plasminogen activation, with Fibrinogen (3 µmol/L) (ΔA405 × 10^6/min^2) of 1.2; a Reaction Rate of Glu-plasminogen activation, with Fragment E (1 µmol/L) (ΔA405 × 10^6/min^2) of 29.1. Also, the Reaction Rate of Glu-plasminogen activation, with SFM (1 µmol/L) (ΔA405 × 10^6/min^2) in series [2] was determined as 3.8.
Regarding “two-chain M5 (activated two-chain form of pro-urokinase mutant M5, Lys^300→His)”, in series [2], the F (fold of kcat/KM against UK) is 1.6 fold, the KM of Glu-plasminogen activation was determined as 3.6 µM, the kcat of Glu-plasminogen activation amounted to 0.153 s⁻¹ and the kcat/KM of Glu-plasminogen activation stood at 2.56 min/µM.
On to “UK (urokinase, two-chain form prepared by plasmin activation of pro-UK)”, for which, in series [2], the F (fold of kcat/KM, UK as reference) was 1 fold; the KM of Glu-plasminogen activation amounted to 11.4 µM; the kcat of Glu-plasminogen activation worked out at 0.302 s⁻¹; the kcat/KM of Glu-plasminogen activation was 1.59 min/µM.
In series [2], “Ala^158-M5 (plasmin-resistant M5, Lys^158→Ala and Lys^300→His)” displayed a Reaction Rate of Glu-plasminogen activation, Buffer Control (ΔA405 × 10^6/min^2) of 0.9; a Reaction Rate of Glu-plasminogen activation, with D-dimer (1 µmol/L) (ΔA405 × 10^6/min^2) of 1.84; a Reaction Rate of Glu-plasminogen activation, with Fibrinogen (3 µmol/L) (ΔA405 × 10^6/min^2) of 0.19; a Reaction Rate of Glu-plasminogen activation, with Fragment E (1 µmol/L) (ΔA405 × 10^6/min^2) of 7.9. Further, the Reaction Rate of Glu-plasminogen activation, with SFM (1 µmol/L) (ΔA405 × 10^6/min^2) in series [2] was determined as 0.62.
